Data set [1] can be described thus: Toxicokinetics after single oral gavage dose, total Ag in whole blood (ICP-MS).
Data set [2] can be described thus: Toxicokinetics after 28 days repeated oral gavage dosing, total Ag in whole blood (ICP-MS). Conditions: 0 to 96 h post-dose.
Setting [3] is: single oral dose 5 mg/kg bw [Ag equivalent 3.25 AgAc, 3.2 AgNO3], male.
[4] abbreviates: single oral dose 125 [80 Ag] mg/kg bw, female.
The mark [5] stands for this setting: single oral dose 125 [80 Ag] mg/kg bw, male.

SMILES strings stand for the structures.

`O=[N+]([O-])[O-].[Ag+]` [AgNO3, silver(I) nitrate]: the “DN AUC0-t” value was 1441 (ng.h/mL)/(mg/kg bw/d) in data set [1] (rat, in vivo, po, 5 mg/kg); 484 (ng.h/mL)/(mg/kg bw/d) in data set [1] (setting [3]); 234 (ng.h/mL)/(mg/kg bw/d) in data set [1] (setting [4]); 242 (ng.h/mL)/(mg/kg bw/d) in data set [1] (setting [5]); 2240 (ng.h/mL)/(mg/kg bw/d) in data set [2] (28 d oral 5 mg/kg bw/d [Ag equivalent 3.25 AgAc, 3.2 AgNO3], female); 1600 (ng.h/mL)/(mg/kg bw/d) in data set [2] (28 d oral 5 mg/kg bw/d [Ag equivalent 3.25 AgAc, 3.2 AgNO3], male). The “DN AUC0-t” value in data set [2] (28 d oral 125 [80 Ag] mg/kg bw/d, female) is 601 (ng.h/mL)/(mg/kg bw/d); in data set [2] (28 d oral 125 [80 Ag] mg/kg bw/d, male), 476 (ng.h/mL)/(mg/kg bw/d). Besides, the “DN AUC(0–24)” value in data set [1] (single oral dose 5 mg/kg bw [Ag equivalent 3.25 AgAc, 3.2 AgNO3], female) is on record as 544 (ng.h/mL)/(mg/kg bw/d); in data set [1] (setting [3]), 311 (ng.h/mL)/(mg/kg bw/d); in data set [1] (setting [4]), 96 (ng.h/mL)/(mg/kg bw/d); in data set [1] (setting [5]), 75 (ng.h/mL)/(mg/kg bw/d).
